From BindingDB's records for doi:10.7270/Q2DR2SWV (Vanderbilt Screening Center For Gpcrs, Ion Channels and …, 2010)

By UniProt entry, the sequences of proteins in these tests, tags left out. Residues count along the entry.
UniProt P31423, 33-912 Q124R limits assumed: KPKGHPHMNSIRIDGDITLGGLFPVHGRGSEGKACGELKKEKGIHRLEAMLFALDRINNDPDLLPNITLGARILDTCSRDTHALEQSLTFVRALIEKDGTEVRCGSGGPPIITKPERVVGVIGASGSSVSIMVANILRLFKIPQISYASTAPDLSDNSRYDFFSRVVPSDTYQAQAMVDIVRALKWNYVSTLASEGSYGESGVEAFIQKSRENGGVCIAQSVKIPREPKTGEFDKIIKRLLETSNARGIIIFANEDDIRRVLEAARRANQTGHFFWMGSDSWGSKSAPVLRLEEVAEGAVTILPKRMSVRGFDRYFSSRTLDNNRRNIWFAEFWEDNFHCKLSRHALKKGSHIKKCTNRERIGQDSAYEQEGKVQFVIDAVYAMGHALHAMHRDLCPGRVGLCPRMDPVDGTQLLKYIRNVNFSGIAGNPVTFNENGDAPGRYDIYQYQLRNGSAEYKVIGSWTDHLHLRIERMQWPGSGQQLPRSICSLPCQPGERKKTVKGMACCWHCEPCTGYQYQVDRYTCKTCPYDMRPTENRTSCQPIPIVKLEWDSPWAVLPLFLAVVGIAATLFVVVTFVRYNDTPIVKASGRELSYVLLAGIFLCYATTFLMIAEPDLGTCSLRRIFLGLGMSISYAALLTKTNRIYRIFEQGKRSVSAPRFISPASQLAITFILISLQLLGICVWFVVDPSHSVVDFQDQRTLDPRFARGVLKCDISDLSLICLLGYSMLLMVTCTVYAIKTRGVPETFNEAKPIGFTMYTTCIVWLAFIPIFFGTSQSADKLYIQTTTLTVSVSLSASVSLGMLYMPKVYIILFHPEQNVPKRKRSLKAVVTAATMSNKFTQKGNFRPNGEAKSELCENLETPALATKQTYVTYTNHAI

Molecular target: Metabotropic glutamate receptor 4 [Q124R] (Rattus norvegicus, UniProt P31423, Q124R)
Assay: PubChem AID 2185

COc1cc(NC(=O)c2ccccn2)ccc1Cl
EC50: 0.107 µM
